B1: GLP-1 (7-36)+Arg-NH2 (peptide)
peptide: HAEGTFTSDVSSYLEGQAAKEFIAWLVKGRR
modifications: C-terminal amide (-NH2)
B2: GLP-1 (7-36)+Arg-Arg-NH2 (peptide)
peptide: HAEGTFTSDVSSYLEGQAAKEFIAWLVKGRRR
modifications: C-terminal amide (-NH2)

Protein sequences, listed by entry. Tags and fused reporters are not part of them. Lines headed by an entry give the natural chain unless they say otherwise; changes in a name come on top.
UniProt P43220: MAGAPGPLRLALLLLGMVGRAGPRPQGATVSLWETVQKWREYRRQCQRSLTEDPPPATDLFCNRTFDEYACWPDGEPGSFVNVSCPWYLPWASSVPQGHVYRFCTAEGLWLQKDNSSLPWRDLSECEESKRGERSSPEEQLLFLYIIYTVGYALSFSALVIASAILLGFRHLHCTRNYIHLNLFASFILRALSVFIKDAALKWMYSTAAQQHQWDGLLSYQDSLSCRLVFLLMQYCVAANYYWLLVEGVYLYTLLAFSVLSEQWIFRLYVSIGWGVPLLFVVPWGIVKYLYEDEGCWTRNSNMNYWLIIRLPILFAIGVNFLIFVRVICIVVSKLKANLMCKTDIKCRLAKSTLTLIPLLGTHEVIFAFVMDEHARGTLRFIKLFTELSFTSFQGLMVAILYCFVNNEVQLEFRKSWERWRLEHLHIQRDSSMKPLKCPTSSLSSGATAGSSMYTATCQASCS

Molecular target: human GLP-1 receptor (human, UniProt P43220 24-463)
Experiment: cell-based or functional assay

Binder	Cyclic AMP-producing activity, relative to naturally occurring GLP-1 (=100%), at 1 × 10^-10 M	Cyclic AMP-producing activity, relative to naturally occurring GLP-1 (=100%), at 1 × 10^-11 M	Cyclic AMP-producing activity, relative to naturally occurring GLP-1 (=100%), at × 10^-9 M
B1	101%	7.4%	78.1%
B2	91.9%	72.3%	112%
